{"source": "patent US7951954B2", "about": "“Bezothiazol derivatives as Beta2 adrenoreceptor agonists” (AstraZeneca AB, priority 2006, dated 2011)", "target": "T1, Adrenergic β2 (Homo sapiens, UniProt P07550)", "T1 construct": "endogenous in cells; host or cells: H292 cells", "assay": "Adrenergic β2 mediated cAMP production in H292 cells (AlphaScreen cAMP detection)", "type": "cell-based", "note": "Structures can show the parent of a compound that is named as a salt."}
{"compound": "O=c1[nH]c2c(O)ccc([C@@H](O)CNCCc3cccc(-c4cccc(CNCc5ccccc5)c4)c3)c2s1", "note": "[Example 29, 7-(2-{2-[3′-(Benzylamino-methyl)-biphenyl-3-yl]-ethylamino}-1R-hydroxy-ethyl)-4-hydroxy-3H-benzothiazol-2-one bis-trifluoroacetate salt]", "values": [{"measurement": "Intrinsic Activity", "value": 0.8}]}
